For the assay, the target named is Delta-type opioid receptor (Homo sapiens, UniProt P41143). In words: ChEBML_146435. An excerpt: Binding affinity against opioid receptor delta from guinea pig brain membranes using [3H]DADLE as radioligand

Protein sequences, listed by entry. Tags and fused reporters are not part of them.
UniProt P41143, whole entry, looked up: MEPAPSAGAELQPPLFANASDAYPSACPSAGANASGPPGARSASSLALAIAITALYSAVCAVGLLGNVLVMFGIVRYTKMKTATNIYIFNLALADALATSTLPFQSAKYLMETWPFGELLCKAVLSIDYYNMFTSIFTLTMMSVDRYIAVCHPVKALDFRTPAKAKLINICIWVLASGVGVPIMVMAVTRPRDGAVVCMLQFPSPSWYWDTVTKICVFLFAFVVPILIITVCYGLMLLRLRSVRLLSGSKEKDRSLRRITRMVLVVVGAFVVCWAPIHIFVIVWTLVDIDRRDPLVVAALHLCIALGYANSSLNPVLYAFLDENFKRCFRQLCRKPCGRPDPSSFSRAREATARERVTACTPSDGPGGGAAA

Consider seven molecules from BindingDB's records for 1319495.

Consider `CN(C(=O)Cc1ccc(Cl)c(Cl)c1)[C@@H]1CCCC[C@H]1N1CCCC1`, for which the Ki is greater than 10 µM. The same measure for `CN(C(=O)Cc1ccc(Cl)c(Cl)c1)[C@H]1CCC2(C[C@@H]1N1CCCC1)OCCO2`: 1.64 µM; for `CN(C(=O)Cc1ccc(Cl)c(Cl)c1)[C@H]1CC[C@@]2(CCCO2)C[C@@H]1N1CCCC1`: 9.4 µM. Then `CN(C(=O)Cc1ccc(Cl)c(Cl)c1)[C@H]1CC2(CC[C@@H]1N1CCCC1)OCCO2`, with 17.5 µM.

As for `C=C1C[C@@]2(CC[C@H](N3CCCC3)[C@@H](N(C)C(=O)Cc3ccc(Cl)c(Cl)c3)C2)OC1=O`, the Ki turned out to be 12.3 µM. The Ki values of the last two molecules are within 1.5-fold of each other. Then `CN(C(=O)Cc1ccc(Cl)c(Cl)c1)[C@H]1CC(=O)CC[C@@H]1N1CCCC1`, with greater than 100 µM. Then `C=C1C[C@]2(CC[C@H](N3CCCC3)[C@@H](N(C)C(=O)Cc3ccc(Cl)c(Cl)c3)C2)OC1=O`, with 9.51 µM.
